Measured values taken from ChEMBL document CHEMBL5131460, “Glenthenamines A-F: Enamine Pyranonaphthoquinones from the Australian Pasture Plant Derived Streptomyces sp. CMB-PB042” (J Nat Prod, 2022).

Assay: Gain in sensitivity, ratio of IC50 for reversal of P-gp mediated doxorubicin resistance in human SW620/AD300 cells overexpressing P-gp by measuring doxorubicin IC50 in absence of compound to IC50 for reversal of P-gp mediated doxorubicin resistance in human SW620/AD300 cells overexpressing P-gp by measuring doxorubicin IC50 in presence of compound
Type: cell-based

Molecule C[C@H]1O[C@H](CC(=O)O)Cc2c1c(O)c1c3c(c4n(c23)[C@@H]([C@@H](C)O)CC4)C=CC1=O has a Ratio IC50 of 3.7.

For C[C@H]1O[C@]2(C)CC(=O)O[C@]2(C)c2c1c(O)c1c3c(c4n(c23)[C@@H]([C@@H](C)O)CC4)C=CC1=O, the Ratio IC50 was 0.75.

C[C@H]1OC(CC(=O)O)=Cc2c1c(O)c1c3c(c4n(c23)[C@H]([C@@H](C)O)CC4)C=CC1=O gave a Ratio IC50 of 3.9.

Molecule C[C@H]1Oc2c(O)c3c4c(c5n(c4c2C[C@H](CC(=O)O)O1)[C@H]([C@@H](C)O)CC5)C=CC3=O has a Ratio IC50 of 1.14.

Work on C[C@@H](O)[C@@H]1CCc2c3c4c(c(O)c(O)c(C[C@@H](O)CC(=O)O)c4n21)C(=O)C=C3 yielded a Ratio IC50 of 1.28.

Work on COC(=O)C[C@H]1Cc2c(c(O)c3c4c(c5n(c24)[C@H]([C@@H](C)O)CC5)C=CC3=O)[C@H](C)O1 yielded a Ratio IC50 of 4.8.

With C[C@@H]1O[C@@H](CC(=O)O)C(=O)c2c1c(O)c1c3c(c4n(c23)[C@H]([C@@H](C)O)CC4)C=CC1=O the Ratio IC50 was 3.8.

C[C@@H]1OC(CC(=O)O)=Cc2c1c(O)c1c3c(c4n(c23)[C@H]([C@@H](C)O)CC4)C=CC1=O gave a Ratio IC50 of 5.7.
